## scFv variants of Ab-14 (light chain) against a SARS-CoV-2 spike peptide

Reference: Li et al. 2023, doi:10.1038/s41467-023-39022-2. File: FLAb, binding data.

Target peptide (SARS-CoV-2 spike, HR2 region): PDVDLGDISGINAS

Each scFv is VH, a 15-residue (Gly4Ser)3 linker, VL, as in the parent Ab-14, and differs from it in the CDRs of the light chain only.
VH: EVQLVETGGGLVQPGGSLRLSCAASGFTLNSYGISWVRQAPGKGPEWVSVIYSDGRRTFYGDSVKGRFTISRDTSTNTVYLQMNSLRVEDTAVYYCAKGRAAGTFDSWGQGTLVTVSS
VL: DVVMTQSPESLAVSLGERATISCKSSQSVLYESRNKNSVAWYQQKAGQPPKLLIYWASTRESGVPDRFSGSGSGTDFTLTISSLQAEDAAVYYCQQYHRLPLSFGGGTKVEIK

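The variants were designed computationally from a first round of random CDR variants and then made and measured. Group labels follow the data file (Ctrl: baseline library sampled from a position-specific scoring matrix, with some repeated check sequences; Rand: our label for a block that the file lists under HC and that is probably the random mutants of the ten best first-round binders; GP: Gaussian process model; HC: hill climbing; Gen: genetic algorithm; Gibbs: Gibbs sampling; a sequence that several methods proposed may carry one label only). Affinity was read by AlphaSeq, a pooled yeast mating assay with surface-displayed partners. After mating in shaken culture at 30 °C for 16 h, diploids were selected and their barcode pairs sequenced. A regression on co-assayed BCL2-family reference pairs converts the normalised counts of each replicate to an apparent Kd. Each pool was mated in six replicate cultures.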

Substitutions are numbered in sequence along the VL above, starting at 1 (not Kabat). Variants here have at most six changes. Kd is apparent (estimated from mating counts) and averaged on the log scale over replicates with a signal. Smaller is tighter. Where no diploid with the target was found in any replicate, the entry reads "no signal": below detection, most likely a poor binder, though not proof of it. The range of this assay differs from that of the first round, and the authors advise against merging the two. In the paper, a design with two or fewer of six values counts as a poor binder. Nonspecific signal, from three strains lacking the peptide, appeared in 4% of pairings of all light chain designs, centred on 430 nM (5% of these signals below 38 nM); values are not corrected for it. The control count says in how many pairings with the empty strains this scFv gave a signal.

For K24L+S25M+Y31H+E61S+S103L [Ctrl], the assay gave 24 nM (6 of 6 replicates; controls 2 of 18).
For Q27I+V29Y+K36E+W56N+S62Q [GP_HC], the assay gave 1.4 nM (6 of 6 replicates; controls 3 of 18).
For S25M+V29D+W56K [Ctrl], the assay gave 1.4 nM (6 of 6 replicates; controls 1 of 18).
For S26P+V29M+W56H [Ctrl], the assay gave 2.7 nM (6 of 6 replicates; controls 0 of 18).
For S25L+S26R+V29T+Y31M+K36Y [Rand], the assay gave 5.0 nM (6 of 6 replicates; controls 3 of 18).
For S25L+S26Q+V29Q+W56N+T59Y [GP_Gen], the assay gave 1.6 nM (6 of 6 replicates; controls 0 of 18).
For S25F+W56D+E61C [GP_Gen], the assay gave 340 pM (6 of 6 replicates; controls 0 of 18).
For V29L+Y31M+S38W+Y97T [Ctrl], the assay gave no signal (0 of 6 replicates; controls 3 of 18).
For S25L+S28W+V29W+W56N+T59Q [GP_Gen], the assay gave 1.5 nM (6 of 6 replicates; controls 1 of 18).
For T59V+S62E [Ctrl], the assay gave 66 nM (5 of 6 replicates; controls 3 of 18).
For Q27T+Y31F+W56D+A57Y [Rand], the assay gave 4.5 nM (6 of 6 replicates; controls 3 of 18).
For S25I+V29E+W56N+E61L [GP_Gen], the assay gave 880 pM (6 of 6 replicates; controls 2 of 18).
For S26R+V29M [Ctrl], the assay gave 210 nM (1 of 6 replicates; controls 0 of 18).
For S25I+V29L+R34N+W56K+S103P [Ctrl], the assay gave 690 pM (6 of 6 replicates; controls 1 of 18).
For S25L+V29E+L30E+W56N+T59Q+E61L [GP_Gen], the assay gave 500 pM (6 of 6 replicates; controls 0 of 18).
For S25V+S33D+W56N+E61C [GP_Gen], the assay gave 460 pM (6 of 6 replicates; controls 0 of 18).
For S62P+R99H [Ctrl], the assay gave 59 nM (6 of 6 replicates; controls 2 of 18).
For L30A+E32M+S38N+W56D+T59I+H98E [Ctrl], the assay gave 510 pM (6 of 6 replicates; controls 0 of 18).
For S25I+R34V+W56Y [Ctrl], the assay gave 8.1 nM (6 of 6 replicates; controls 0 of 18).
For S26E+H98Y [Ctrl], the assay gave 10 nM (3 of 6 replicates; controls 0 of 18).
For S26Q+Y31Q+R34P+N35Q+K36G+L102E [Ctrl], the assay gave 450 nM (2 of 6 replicates; controls 0 of 18).
For S26Q+K36F+W56H+S62D [GP_HC], the assay gave no signal (0 of 6 replicates; controls 1 of 18).
For Y31K+R34T+S58A+R99H [Ctrl], the assay gave 62 nM (6 of 6 replicates; controls 0 of 18).
For V29W+S33K+W56G+H98P [Ctrl], the assay gave 350 nM (2 of 6 replicates; controls 3 of 18).
For S25F+N35T+K36S+S38R+W56N [Rand], the assay gave 3.2 nM (6 of 6 replicates; controls 4 of 18).
For S25L+S26Q+W56N+S62D [GP_Gen], the assay gave 2.8 nM (6 of 6 replicates; controls 0 of 18).
For S25L+S26R+V29T+L30K+K36Q+W56M [GP_HC], the assay gave 16 nM (6 of 6 replicates; controls 1 of 18).
For Y31G+N37A+W56E [Ctrl], the assay gave 5.2 nM (4 of 6 replicates; controls 0 of 18).
For S25F+N35T+K36Y+W56N+S62Y [GP_HC], the assay gave 1.3 nM (6 of 6 replicates; controls 2 of 18).
For K36M+N37I+W56Q+R99T+P101H [Ctrl], the assay gave no signal (0 of 6 replicates; controls 0 of 18).
For S25L+Q27E+W56E+E61L [GP_Gen], the assay gave 720 pM (6 of 6 replicates; controls 1 of 18).
For S25F+S26E+V29Y+W56N [GP_Gen], the assay gave 610 pM (6 of 6 replicates; controls 1 of 18).
For V29W+S33D+W56G [GP_HC], the assay gave 700 pM (6 of 6 replicates; controls 2 of 18).
For S26M+Y31D+W56Q+T59W+S103L [Ctrl], the assay gave 5.3 nM (2 of 6 replicates; controls 0 of 18).
For S25L+V29W+L30E+W56N [GP_Gen], the assay gave 950 pM (6 of 6 replicates; controls 2 of 18).
For S25L+S26A+V29E+W56E [GP_Gen], the assay gave 350 pM (6 of 6 replicates; controls 1 of 18).
For S25L+V29N+W56N+E61F [GP_Gen], the assay gave 1.9 nM (6 of 6 replicates; controls 1 of 18).
For S25L+S26E+K36P+W56N [GP_Gen], the assay gave 990 pM (6 of 6 replicates; controls 0 of 18).
For L30I+S38N+T59L [Ctrl], the assay gave no signal (0 of 6 replicates; controls 0 of 18).
For S25L+S26R+V29L+K36P+W56E [GP_HC], the assay gave 500 pM (6 of 6 replicates; controls 1 of 18).
For L30G [Ctrl], the assay gave 170 nM (6 of 6 replicates; controls 3 of 18).
For Q27P+R34A+W56N+E61M [GP_HC], the assay gave 900 pM (6 of 6 replicates; controls 0 of 18).
For S26G+S28G+W56G+S62Y+Q95V [Rand], the assay gave no signal (0 of 6 replicates; controls 0 of 18).
For Q27P+V29E+S33D+N35A+K36F+W56H [GP_Gibbs], the assay gave 3.6 nM (6 of 6 replicates; controls 1 of 18).
For S25M+N37V [Ctrl], the assay gave no signal (0 of 6 replicates; controls 0 of 18).
For S28L+V29E+N35M+W56N+T59Y+S62D [GP_Gibbs], the assay gave 16 nM (6 of 6 replicates; controls 1 of 18).
For S25L+S33E+W56S [GP_Gen], the assay gave 630 pM (6 of 6 replicates; controls 1 of 18).
For S25L+S26R+V29T+L30K+K36Q+W56E [GP_HC], the assay gave 1.2 nM (6 of 6 replicates; controls 0 of 18).
For V29D+H98S [Ctrl], the assay gave 7.0 nM (6 of 6 replicates; controls 0 of 18).
For S25F+W56N+E61C [GP_Gen], the assay gave 2.0 nM (6 of 6 replicates; controls 4 of 18).
For S26E+Q27K+V29K+W56Q [Ctrl], the assay gave 2.0 nM (6 of 6 replicates; controls 0 of 18).

Excerpt, the first 3 entries:

changes,group,apparent Kd,replicates with signal,empty controls
K24L+S25M+Y31H+E61S+S103L,Ctrl,24 nM,6 of 6,2 of 18
Q27I+V29Y+K36E+W56N+S62Q,GP_HC,1.4 nM,6 of 6,3 of 18
S25M+V29D+W56K,Ctrl,1.4 nM,6 of 6,1 of 18